Bioassay records as filed in PubChem BioAssay.
An excerpt weighted towards active compounds, which were near 13% of everything screened.
Sfp inh – blocks B. subtilis Sfp PPTase activity | Potency, µM, actives largely listed as inhibitors | Biochemical Sfp PPTase activity, qHTS | actives 3.5% (n = 310,000) | Q9F4F7;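 further: the enzyme is Sfp with the accession as filed and its product quenches rhodamine fluorescence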
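Sfp 15 nM + cpd, 15 min RT; start w/ rhodamine-CoA 5 uM, BHQ-2-YbbR 12.5 uM (final); 50 mM Hepes pH 7.6, 10 mM MgCl2, 0.01% NP-40, 0.01% BSA; read 525/598 nm at 0 and 30 min.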
ALDH1A1 inh – inhibitors of human aldehyde dehydrogenase 1A1; Potency, µM (highest dose often 75.3 µM), most hits filed as inhibitors; AID 1030; actives 7.3% (n = 220,000); Purified ALDH1A1, NADH fluorescence, propionaldehyde substrate; active means well fitted inhibition curve with a large enough effect, not every such curve was filed as active; inconclusive means small, poorly fitted or top-dose-only effect, or another doubt; inactive means no such curve, though single readings can be large or run the other way
miR-21 reporter – miR-21 reporter, rising signal | HeLa miR-21 FLuc reporter, luciferase, 48 h | Potency, µM (highest dose often 38.3 µM) | 340,000 tested, under 10 active | AID 2288; active = well fitted rising curve with a large enough effect; inconclusive = small, poorly fitted or top-dose-only effect; inactive = no such curve, though single readings can be large or run the other way;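 further: miR-21 action dims this reporter so a rising signal means less miR-21 action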
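HeLa miR-21-FLuc reporter line, endogenous miR-21; 2000 cells/well in DMEM/10% FBS; compound titration up to ~40uM final, 48 h, 37 degree Celsius; luciferase detection reagent, 15 min lysis, CCD luminescence.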
G9a block – blocks human histone lysine methyltransferase G9a | Q96KQ7 | G9a H3K9 monomethylation, AlphaScreen, 2 h | Potency, µM (top dose mostly 102 µM), actives largely listed as inhibitors | actives 8.8% (n = 350,000); further: nearly all actives have a fitted effect of over 75% in size
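Signal arises when biotinylated H3K9 peptide, once monomethylated, bridges streptavidin donor and antibody-captured acceptor beads. Enzyme at 20 nM was preincubated 15 min with test compounds; peptide 500 nM and SAM 20 uM then reacted for 2 h.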
KDM4E inh – inhibitors of human JMJD2E histone demethylase | B2RXH2 | JMJD2E catalytic domain, FDH-coupled NADH fluorescence (FDH is formaldehyde dehydrogenase) | Potency, µM (series often up to 57.1 µM), hits mostly inhibitors | actives 1.6% (n = 230,000); active means well fitted inhibition curve with a large enough effect, not every such curve was filed as active; inconclusive means small, poorly fitted or top-dose-only effect, or another doubt; inactive means no such curve, though single readings can be large or run the other way; further: nearly all actives have a fitted effect of over 50% in size
LMNA splice mod – changes lamin A minigene splicing in HeLa cells. HeLa LMNA splicing GFP/RFP minigene ratio, 48 h. actives 0.01% (n = 200,000). AID 1487. Potency, µM (top dose mostly 46.1 µM), most hits filed as inhibitors; active means well fitted inhibition curve with a large enough effect in the signal ratio, with a control signal flat, not every such curve was filed as active; inconclusive means small, poorly fitted or top-dose-only effect, or effect the other way, or a change in a side signal; the % refers to the signal ratio
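S3 HeLa cells stably expressing lamin A-EGFP splicing minigene plus DsRed2, 600 cells/well, 48 h compound exposure at 37C. Laser-scanning cytometry; analysed as GFP (500-530 nm)/RFP (575-640 nm) total intensity ratio; 0.5% DMSO vehicle.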
Large screens that a line does not name were inactive. Unless noted, the call rests on the fitted dose curve; in most records, active means well fitted curve in the direction sought with a large enough effect; inconclusive means small, poorly fitted or top-dose-only effect, or another doubt; inactive means no such curve, though single readings can be large; an effect the other way counts as inactive or inconclusive.

CCOC(=O)C1(CCOC)CCN(C(=O)c2ccc(CSC)o2)CC1	G9a block inconclusive (no result: ALDH1A1 inh, KDM4E inh, LMNA splice mod)
Cn1c(=O)c(-c2ccc(F)cc2)nc2cnc(OCc3ccccc3)nc21	ALDH1A1 inh inconclusive (no result: miR-21 reporter, KDM4E inh)
CCCN(CCC)C(=O)CSc1nc2n[nH]c(C)c2c(=N)n1-c1ccc(OC)cc1	ALDH1A1 inh inconclusive, G9a block inconclusive, LMNA splice mod inconclusive
CCCN(CCC)C(=O)CSc1nc2n[nH]c(C)c2c(=N)n1-c1ccc(OCC)cc1	ALDH1A1 inh 3.16µM, LMNA splice mod inconclusive
Cc1ccc(N2CC(NC(=O)c3cc4ccccc4o3)CC2=O)cc1 (stereo not drawn)	none (no result: Sfp inh, ALDH1A1 inh, KDM4E inh)
CCCCNCC	none (no result: Sfp inh, miR-21 reporter, G9a block, KDM4E inh, LMNA splice mod)
Brc1cc2[nH]cnc2c2ccccc12	Sfp inh inconclusive, ALDH1A1 inh 14.1µM, G9a block inconclusive
CCC(C)(C)c1ccc(Oc2cccc(C(=O)O)c2)cc1	none (no result: LMNA splice mod)
CCC(C)(C)c1ccc(Oc2ccc(N)cc2)cc1	miR-21 reporter inconclusive, G9a block 39.8µM (no result: LMNA splice mod)
CC1(C)SC2C(NC(=O)C(N)c3ccccc3)C(=O)N2C1C(=O)O (stereo not drawn)	KDM4E inh inconclusive (no result: miR-21 reporter, LMNA splice mod)
O=C(Nc1ccccc1N1CCCC1)c1cccc(Cl)c1Cl	none
Cc1c(N2CCCC2)cc2c(c1NC(=O)c1ccccc1Cl)C(C)(C)CC2(C)C	G9a block 28.2µM (no result: LMNA splice mod)
Cc1nc2ccc(NC(=O)c3ccc(C)c(S(=O)(=O)N4CCOCC4)c3)cc2s1	none (no result: Sfp inh, ALDH1A1 inh, miR-21 reporter, KDM4E inh, LMNA splice mod)
CCC(=O)Nc1ccc2nc3c(=O)[nH]c(=S)[nH]c3nc2c1	G9a block 31.6µM (no result: ALDH1A1 inh, KDM4E inh, LMNA splice mod)
Cc1cc(S(=O)(=O)NCCc2csc(-c3cccc(F)c3)n2)ccc1F	LMNA splice mod inconclusive (no result: Sfp inh, ALDH1A1 inh, KDM4E inh)
O=C(NNC1CC(=O)N(c2ccc(F)cc2)C1=O)c1cccnc1 (stereo not drawn)	G9a block 12.6µM (no result: ALDH1A1 inh, LMNA splice mod)
O=C(NNC1CC(=O)N(c2ccccc2)C1=O)c1cccnc1 (stereo not drawn)	LMNA splice mod inconclusive
CC(C)c1ccc(N2C(=O)CC(NNC(=O)c3cccnc3)C2=O)cc1 (stereo not drawn)	G9a block 56.2µM (no result: ALDH1A1 inh, LMNA splice mod)
O=S(=O)(c1ccc(Cl)cc1)c1nc(-c2cccs2)oc1SCc1ccc(F)cc1	G9a block inconclusive (no result: Sfp inh, ALDH1A1 inh, KDM4E inh, LMNA splice mod)
CCc1ccc(NC(=O)CC2C(=O)N(c3cccc(OC)c3)C(=O)N2Cc2ccc(F)cc2)cc1 (stereo not drawn)	none (no result: Sfp inh, ALDH1A1 inh, KDM4E inh, LMNA splice mod)
COc1ccc(-c2csc(Nc3cccnc3)n2)cc1OC	G9a block 50.1µM
c1cncc(Nc2nc(-c3ccncc3)cs2)c1	none
Clc1cccc(-c2csc(Nc3cccnc3)n2)c1	Sfp inh 56.2µM, G9a block 44.7µM (no result: LMNA splice mod)
Clc1ccccc1-c1csc(Nc2cccnc2)n1	Sfp inh 31.6µM (no result: G9a block, LMNA splice mod)
CC1CCCN(c2ncnc3c2nnn3C)C1 (stereo not drawn)	none (no result: Sfp inh, ALDH1A1 inh, KDM4E inh)
CCOc1ccc(CNS(=O)(=O)c2cc(-c3cc(C)no3)ccc2OC)cc1OC	none (no result: ALDH1A1 inh, G9a block, KDM4E inh, LMNA splice mod)
COc1ccc(N2CCN(c3ccc(-c4nc(-c5ccccc5C)no4)cc3[N+](=O)[O-])CC2)cc1	none (no result: Sfp inh, ALDH1A1 inh, KDM4E inh, LMNA splice mod)
COC(=O)/C=C1\SC(=Nc2ccc(OC)cc2)NC1=O	none
COc1ccc(S(=O)(=O)/N=C2/NC(=O)/C(=C/c3ccco3)S2)cc1	ALDH1A1 inh 22.4µM, G9a block inconclusive, KDM4E inh inconclusive
COc1cc(/C=C2\S/C(=N/S(=O)(=O)c3ccccc3)NC2=O)c([N+](=O)[O-])cc1OC	Sfp inh inconclusive
COc1ccc(N=C2NC(=O)/C(=C/c3ccco3)S2)cc1	Sfp inh inconclusive, G9a block 44.7µM, KDM4E inh inconclusive (no result: ALDH1A1 inh, LMNA splice mod)
Cc1ccc(S(=O)(=O)/N=C2/NC(=O)/C(=C/c3ccccn3)S2)cc1	G9a block 56.2µM
COc1ccc(S(=O)(=O)/N=C2/NC(=O)/C(=C\c3ccco3)S2)cc1	ALDH1A1 inh 17.8µM, G9a block 8.91µM
N#Cc1ccccc1OCC(=O)OCC(=O)c1c[nH]c2ccccc12	none (no result: Sfp inh, ALDH1A1 inh, miR-21 reporter, KDM4E inh, LMNA splice mod)
O=C(CNCCc1ccc(F)cc1)Nc1cc(F)ccc1F	Sfp inh 63.1µM, G9a block inconclusive (no result: ALDH1A1 inh, KDM4E inh, LMNA splice mod)
COc1ccc(C2CC(c3ccccc3)n3nnnc3N2)cc1 (stereo not drawn)	ALDH1A1 inh inconclusive
Cc1ccc(C2CC(c3cccc(Br)c3)Nc3nnnn32)cc1 (stereo not drawn)	ALDH1A1 inh 17.8µM
